Measurements: ChEMBL document CHEMBL4613315, “Design of First-in-Class Dual EZH2/HDAC Inhibitor: Biochemical Activity and Biological Evaluation in Cancer Cells” (ACS Med Chem Lett, 2020)

Chains of the proteins cited; added tags and fusions are not shown. Lines headed by an entry give the natural chain unless they say otherwise; changes in a name come on top.
UniProt Q13547: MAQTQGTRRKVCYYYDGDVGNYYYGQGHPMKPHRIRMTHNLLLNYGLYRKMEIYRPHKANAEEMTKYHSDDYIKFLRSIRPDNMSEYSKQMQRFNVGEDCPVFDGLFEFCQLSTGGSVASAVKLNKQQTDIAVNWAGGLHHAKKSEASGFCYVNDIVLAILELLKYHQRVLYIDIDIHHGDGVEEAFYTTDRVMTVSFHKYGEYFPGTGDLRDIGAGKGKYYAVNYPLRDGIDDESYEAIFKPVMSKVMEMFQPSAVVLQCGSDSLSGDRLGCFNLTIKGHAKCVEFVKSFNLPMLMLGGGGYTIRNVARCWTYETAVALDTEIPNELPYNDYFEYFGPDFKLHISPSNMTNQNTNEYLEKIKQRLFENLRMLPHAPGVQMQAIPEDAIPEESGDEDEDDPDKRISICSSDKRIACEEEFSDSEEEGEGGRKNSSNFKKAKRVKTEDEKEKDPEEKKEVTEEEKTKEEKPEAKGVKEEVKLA
UniProt O15379: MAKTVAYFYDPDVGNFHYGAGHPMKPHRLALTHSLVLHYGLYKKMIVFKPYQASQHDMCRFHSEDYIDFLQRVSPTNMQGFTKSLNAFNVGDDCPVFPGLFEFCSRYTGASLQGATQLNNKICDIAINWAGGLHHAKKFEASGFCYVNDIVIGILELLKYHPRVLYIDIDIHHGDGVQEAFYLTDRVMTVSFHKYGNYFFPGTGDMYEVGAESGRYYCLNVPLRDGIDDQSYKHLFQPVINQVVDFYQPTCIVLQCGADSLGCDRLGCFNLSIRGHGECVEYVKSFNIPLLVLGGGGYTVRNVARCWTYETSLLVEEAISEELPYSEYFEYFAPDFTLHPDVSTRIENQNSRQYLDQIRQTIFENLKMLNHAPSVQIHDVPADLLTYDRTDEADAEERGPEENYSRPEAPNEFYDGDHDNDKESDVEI
UniProt Q92769: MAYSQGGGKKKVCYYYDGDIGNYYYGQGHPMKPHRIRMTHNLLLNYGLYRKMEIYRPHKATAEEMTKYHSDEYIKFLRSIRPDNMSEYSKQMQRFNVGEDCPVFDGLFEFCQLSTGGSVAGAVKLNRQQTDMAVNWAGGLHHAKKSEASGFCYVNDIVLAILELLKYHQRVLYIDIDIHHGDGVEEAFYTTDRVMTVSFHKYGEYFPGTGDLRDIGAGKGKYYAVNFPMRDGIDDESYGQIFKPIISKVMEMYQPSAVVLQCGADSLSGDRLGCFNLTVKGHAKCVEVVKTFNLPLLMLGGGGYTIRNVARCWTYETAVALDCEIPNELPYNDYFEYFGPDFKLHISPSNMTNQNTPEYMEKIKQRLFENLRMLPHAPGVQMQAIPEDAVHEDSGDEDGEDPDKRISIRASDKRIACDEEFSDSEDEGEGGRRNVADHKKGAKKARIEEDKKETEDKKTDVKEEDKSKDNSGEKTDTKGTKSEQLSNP
UniProt Q9UQL6: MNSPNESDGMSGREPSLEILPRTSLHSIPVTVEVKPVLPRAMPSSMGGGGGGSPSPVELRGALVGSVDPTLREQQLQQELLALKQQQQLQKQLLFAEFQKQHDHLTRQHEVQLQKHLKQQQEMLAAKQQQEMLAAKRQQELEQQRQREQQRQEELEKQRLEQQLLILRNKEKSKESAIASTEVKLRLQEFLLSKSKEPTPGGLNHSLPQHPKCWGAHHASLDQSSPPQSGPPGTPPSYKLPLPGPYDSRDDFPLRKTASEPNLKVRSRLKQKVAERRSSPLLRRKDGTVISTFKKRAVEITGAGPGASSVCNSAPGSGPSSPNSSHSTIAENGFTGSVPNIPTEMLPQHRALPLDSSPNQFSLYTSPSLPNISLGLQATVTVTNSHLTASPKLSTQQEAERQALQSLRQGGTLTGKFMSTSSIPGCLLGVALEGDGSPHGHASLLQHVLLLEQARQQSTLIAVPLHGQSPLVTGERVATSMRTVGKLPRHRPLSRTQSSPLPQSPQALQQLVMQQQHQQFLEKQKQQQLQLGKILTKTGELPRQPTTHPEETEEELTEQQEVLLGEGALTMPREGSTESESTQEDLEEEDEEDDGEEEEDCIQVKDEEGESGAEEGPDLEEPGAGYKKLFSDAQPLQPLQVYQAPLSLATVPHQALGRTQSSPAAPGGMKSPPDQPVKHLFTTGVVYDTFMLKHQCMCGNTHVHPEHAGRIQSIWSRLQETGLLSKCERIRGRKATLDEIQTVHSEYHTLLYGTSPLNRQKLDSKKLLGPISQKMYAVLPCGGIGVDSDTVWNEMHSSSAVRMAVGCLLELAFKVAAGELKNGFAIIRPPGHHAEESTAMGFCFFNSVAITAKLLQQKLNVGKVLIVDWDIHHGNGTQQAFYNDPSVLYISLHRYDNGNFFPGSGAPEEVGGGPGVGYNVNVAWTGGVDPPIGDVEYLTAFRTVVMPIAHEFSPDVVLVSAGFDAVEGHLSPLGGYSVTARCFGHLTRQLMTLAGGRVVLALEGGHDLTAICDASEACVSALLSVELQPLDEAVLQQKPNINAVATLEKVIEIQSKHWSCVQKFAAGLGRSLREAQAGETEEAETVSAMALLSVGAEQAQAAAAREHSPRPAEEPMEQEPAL
UniProt Q8WUI4: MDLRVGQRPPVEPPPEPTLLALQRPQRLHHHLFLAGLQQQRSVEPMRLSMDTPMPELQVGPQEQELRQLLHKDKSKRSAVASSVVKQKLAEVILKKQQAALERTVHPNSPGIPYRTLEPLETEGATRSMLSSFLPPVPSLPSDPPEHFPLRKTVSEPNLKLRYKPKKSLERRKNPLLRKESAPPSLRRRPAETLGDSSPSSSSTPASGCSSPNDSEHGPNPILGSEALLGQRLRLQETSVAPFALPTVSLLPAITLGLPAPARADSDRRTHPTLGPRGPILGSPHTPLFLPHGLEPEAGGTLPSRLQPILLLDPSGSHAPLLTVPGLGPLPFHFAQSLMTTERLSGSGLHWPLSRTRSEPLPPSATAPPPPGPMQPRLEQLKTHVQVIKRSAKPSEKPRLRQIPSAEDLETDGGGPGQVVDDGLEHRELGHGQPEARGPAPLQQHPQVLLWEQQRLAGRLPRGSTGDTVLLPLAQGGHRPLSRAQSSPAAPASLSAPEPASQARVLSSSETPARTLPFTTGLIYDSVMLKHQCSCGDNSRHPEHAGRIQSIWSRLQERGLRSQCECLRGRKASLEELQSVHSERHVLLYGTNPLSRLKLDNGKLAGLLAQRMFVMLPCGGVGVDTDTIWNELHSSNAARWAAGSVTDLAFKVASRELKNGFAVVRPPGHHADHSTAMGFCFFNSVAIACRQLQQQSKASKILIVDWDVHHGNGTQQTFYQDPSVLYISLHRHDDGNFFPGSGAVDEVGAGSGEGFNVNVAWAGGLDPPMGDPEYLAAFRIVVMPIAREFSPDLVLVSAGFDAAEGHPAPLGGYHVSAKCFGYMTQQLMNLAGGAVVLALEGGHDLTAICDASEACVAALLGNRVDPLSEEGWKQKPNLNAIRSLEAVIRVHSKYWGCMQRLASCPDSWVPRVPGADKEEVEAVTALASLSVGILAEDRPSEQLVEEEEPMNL
UniProt P56524: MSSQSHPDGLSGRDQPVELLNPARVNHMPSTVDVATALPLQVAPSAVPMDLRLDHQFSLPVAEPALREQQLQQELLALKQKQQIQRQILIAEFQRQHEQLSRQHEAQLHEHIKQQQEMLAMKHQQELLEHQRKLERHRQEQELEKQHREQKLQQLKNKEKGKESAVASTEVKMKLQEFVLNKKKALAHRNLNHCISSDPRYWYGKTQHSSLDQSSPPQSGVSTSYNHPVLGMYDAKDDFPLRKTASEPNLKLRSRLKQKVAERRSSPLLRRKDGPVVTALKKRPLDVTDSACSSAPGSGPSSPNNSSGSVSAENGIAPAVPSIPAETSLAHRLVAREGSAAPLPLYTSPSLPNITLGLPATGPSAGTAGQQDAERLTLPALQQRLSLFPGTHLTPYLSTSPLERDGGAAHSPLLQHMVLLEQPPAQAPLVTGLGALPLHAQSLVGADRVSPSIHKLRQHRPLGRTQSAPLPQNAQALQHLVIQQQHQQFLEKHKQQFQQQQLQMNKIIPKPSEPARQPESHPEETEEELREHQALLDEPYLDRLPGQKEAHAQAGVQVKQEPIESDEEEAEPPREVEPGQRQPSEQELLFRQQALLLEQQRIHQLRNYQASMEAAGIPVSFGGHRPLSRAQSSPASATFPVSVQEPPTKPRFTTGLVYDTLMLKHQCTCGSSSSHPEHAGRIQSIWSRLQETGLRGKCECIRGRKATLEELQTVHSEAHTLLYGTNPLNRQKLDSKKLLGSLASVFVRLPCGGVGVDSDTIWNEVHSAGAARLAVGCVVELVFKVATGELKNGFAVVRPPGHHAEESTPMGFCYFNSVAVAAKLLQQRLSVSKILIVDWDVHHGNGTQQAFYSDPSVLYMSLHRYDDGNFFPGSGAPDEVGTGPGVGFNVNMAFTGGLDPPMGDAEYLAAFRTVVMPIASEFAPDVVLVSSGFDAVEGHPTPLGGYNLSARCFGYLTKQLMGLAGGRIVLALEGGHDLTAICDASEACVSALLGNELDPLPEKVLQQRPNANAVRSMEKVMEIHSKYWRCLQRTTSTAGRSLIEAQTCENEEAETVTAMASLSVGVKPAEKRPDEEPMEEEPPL
UniProt Q9UKV0: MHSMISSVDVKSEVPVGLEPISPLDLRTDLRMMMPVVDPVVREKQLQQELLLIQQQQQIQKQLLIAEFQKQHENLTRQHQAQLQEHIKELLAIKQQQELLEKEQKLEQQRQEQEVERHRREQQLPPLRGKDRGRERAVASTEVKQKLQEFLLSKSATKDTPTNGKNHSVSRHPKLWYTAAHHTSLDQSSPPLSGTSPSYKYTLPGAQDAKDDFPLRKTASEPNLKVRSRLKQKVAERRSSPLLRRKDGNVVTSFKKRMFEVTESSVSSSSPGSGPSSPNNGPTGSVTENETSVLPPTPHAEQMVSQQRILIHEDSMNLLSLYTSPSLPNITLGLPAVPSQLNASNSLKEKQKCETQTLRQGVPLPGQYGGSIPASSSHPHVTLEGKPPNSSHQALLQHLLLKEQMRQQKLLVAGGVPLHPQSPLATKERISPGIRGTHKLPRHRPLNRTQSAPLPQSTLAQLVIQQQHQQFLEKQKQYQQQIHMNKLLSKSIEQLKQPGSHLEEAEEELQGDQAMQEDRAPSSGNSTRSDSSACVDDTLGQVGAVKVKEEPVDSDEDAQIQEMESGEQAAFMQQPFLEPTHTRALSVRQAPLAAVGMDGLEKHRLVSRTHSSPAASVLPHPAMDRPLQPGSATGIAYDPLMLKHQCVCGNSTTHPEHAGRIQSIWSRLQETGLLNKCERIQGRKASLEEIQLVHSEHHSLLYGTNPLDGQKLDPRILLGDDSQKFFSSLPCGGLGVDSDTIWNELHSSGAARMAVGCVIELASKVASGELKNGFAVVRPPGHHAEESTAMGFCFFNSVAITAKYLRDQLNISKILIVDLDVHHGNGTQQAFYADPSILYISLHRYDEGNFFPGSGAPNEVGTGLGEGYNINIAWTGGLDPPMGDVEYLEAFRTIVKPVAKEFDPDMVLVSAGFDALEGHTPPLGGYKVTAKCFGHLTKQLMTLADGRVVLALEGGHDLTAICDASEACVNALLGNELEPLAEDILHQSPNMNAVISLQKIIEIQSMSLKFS
UniProt Q15910, whole entry, looked up: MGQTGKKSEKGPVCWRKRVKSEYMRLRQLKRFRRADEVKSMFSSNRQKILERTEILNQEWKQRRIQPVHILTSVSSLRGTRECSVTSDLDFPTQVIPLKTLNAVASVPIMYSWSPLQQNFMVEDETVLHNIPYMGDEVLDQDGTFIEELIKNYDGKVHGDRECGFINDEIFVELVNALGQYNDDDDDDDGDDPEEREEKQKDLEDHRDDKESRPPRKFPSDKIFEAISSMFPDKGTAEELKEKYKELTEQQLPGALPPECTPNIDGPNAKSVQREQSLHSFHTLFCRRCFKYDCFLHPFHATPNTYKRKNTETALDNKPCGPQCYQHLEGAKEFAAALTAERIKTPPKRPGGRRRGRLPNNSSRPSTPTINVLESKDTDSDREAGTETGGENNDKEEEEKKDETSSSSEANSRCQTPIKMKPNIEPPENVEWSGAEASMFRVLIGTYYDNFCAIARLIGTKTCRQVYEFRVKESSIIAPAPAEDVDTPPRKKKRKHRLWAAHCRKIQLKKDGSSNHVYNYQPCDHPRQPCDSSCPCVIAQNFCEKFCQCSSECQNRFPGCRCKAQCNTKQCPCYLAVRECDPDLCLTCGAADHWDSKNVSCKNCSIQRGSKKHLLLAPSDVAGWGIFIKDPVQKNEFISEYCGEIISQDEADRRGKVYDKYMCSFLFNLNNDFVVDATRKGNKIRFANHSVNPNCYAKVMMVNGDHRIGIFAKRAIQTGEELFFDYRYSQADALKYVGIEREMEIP

What was measured:
Assay type in all cases: cell-based
[1] = biological target: T1, Histone deacetylase (Homo sapiens) (UniProt Q13547+O15379+Q9UBN7+Q92769+Q9UQL6+Q8WUI4+Q9BY41+Q96DB2+P56524+Q9UKV0+Q969S8); assay: Inhibition of HDAC in human U937 cells assessed as Ac-H3 level at 5 uM incubated for 48 hrs by Western blot analysis; conditions: U-937
[2] = biological target: T1, Histone deacetylase (Homo sapiens); assay: Inhibition of HDAC in human U937 cells assessed as Ac-H3 level at 10 uM incubated for 48 hrs by Western blot analysis; conditions: U-937
[3] = biological target: T1, Histone deacetylase (Homo sapiens); assay: Inhibition of HDAC in human U937 cells assessed as Ac-H3 level at 5 uM incubated for 72 hrs by Western blot analysis; conditions: U-937
[4] = biological target: T1, Histone deacetylase (Homo sapiens); assay: Inhibition of HDAC in human U937 cells assessed as Ac-H3 level at 10 uM incubated for 72 hrs by Western blot analysis; conditions: U-937
[5] = biological target: T1, Histone deacetylase (Homo sapiens); assay: Inhibition of HDAC in human U937 cells assessed as Ac-H3 level at 5 uM incubated for 96 hrs by Western blot analysis; conditions: U-937
[6] = biological target: T1, Histone deacetylase (Homo sapiens); assay: Inhibition of HDAC in human U937 cells assessed as Ac-H3 level at 10 uM incubated for 96 hrs by Western blot analysis; conditions: U-937
[7] = biological target: T2, Protein deacetylase HDAC6 (Homo sapiens) (UniProt Q9UBN7); assay: Inhibition of HDAC6 in human U937 cells assessed as acetylated alpha-tubulin level at 5 uM incubated for 48 hrs by Western blot analysis; conditions: U-937
T2 sequence (whole entry): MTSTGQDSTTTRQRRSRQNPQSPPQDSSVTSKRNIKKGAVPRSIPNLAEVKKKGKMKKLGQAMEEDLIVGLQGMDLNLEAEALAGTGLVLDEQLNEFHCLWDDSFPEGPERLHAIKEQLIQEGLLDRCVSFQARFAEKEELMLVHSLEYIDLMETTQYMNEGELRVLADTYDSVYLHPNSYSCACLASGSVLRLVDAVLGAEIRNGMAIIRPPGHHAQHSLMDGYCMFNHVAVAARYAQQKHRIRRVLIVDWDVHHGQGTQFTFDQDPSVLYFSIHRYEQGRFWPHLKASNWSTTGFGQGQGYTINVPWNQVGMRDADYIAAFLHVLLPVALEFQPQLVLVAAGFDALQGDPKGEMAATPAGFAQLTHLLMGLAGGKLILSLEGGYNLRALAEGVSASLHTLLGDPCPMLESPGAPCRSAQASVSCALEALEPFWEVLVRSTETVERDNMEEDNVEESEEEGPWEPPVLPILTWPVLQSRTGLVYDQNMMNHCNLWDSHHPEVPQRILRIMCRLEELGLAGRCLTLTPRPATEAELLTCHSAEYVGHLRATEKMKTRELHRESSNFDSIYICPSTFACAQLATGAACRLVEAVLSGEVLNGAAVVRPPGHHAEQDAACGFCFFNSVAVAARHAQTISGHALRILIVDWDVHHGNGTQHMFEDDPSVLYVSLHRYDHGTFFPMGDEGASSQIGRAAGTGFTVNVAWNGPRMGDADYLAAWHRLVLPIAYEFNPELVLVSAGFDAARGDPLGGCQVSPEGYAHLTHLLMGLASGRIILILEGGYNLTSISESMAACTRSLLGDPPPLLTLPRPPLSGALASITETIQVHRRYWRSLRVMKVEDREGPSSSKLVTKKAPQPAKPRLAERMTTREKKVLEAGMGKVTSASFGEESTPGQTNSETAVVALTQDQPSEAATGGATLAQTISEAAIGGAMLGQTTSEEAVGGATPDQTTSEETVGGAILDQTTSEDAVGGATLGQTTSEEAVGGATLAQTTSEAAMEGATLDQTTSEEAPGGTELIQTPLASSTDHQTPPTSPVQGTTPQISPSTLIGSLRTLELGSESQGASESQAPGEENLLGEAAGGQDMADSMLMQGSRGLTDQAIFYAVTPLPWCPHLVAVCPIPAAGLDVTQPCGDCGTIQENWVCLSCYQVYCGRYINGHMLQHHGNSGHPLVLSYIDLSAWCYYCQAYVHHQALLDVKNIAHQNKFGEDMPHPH

[8] = biological target: T2, Protein deacetylase HDAC6 (Homo sapiens); assay: Inhibition of HDAC6 in human U937 cells assessed as acetylated alpha-tubulin level at 10 uM incubated for 48 hrs by Western blot analysis; conditions: U-937
[9] = biological target: T2, Protein deacetylase HDAC6 (Homo sapiens); assay: Inhibition of HDAC6 in human U937 cells assessed as acetylated alpha-tubulin level at 5 uM incubated for 72 hrs by Western blot analysis; conditions: U-937
[10] = biological target: T2, Protein deacetylase HDAC6 (Homo sapiens); assay: Inhibition of HDAC6 in human U937 cells assessed as acetylated alpha-tubulin level at 10 uM incubated for 72 hrs by Western blot analysis; conditions: U-937
[11] = biological target: T2, Protein deacetylase HDAC6 (Homo sapiens); assay: Inhibition of HDAC6 in human U937 cells assessed as acetylated alpha-tubulin level at 5 uM incubated for 96 hrs by Western blot analysis; conditions: U-937
[12] = biological target: T2, Protein deacetylase HDAC6 (Homo sapiens); assay: Inhibition of HDAC6 in human U937 cells assessed as acetylated alpha-tubulin level at 10 uM incubated for 96 hrs by Western blot analysis; conditions: U-937
[13] = biological target: T3, Histone-lysine N-methyltransferase EZH2 (Homo sapiens, UniProt Q15910); assay: Inhibition of EZH2 in human U937 cells assessed as H3K27me3 level at 5 uM incubated for 48 hrs by Western blot analysis; conditions: U-937
[14] = biological target: T3, Histone-lysine N-methyltransferase EZH2; assay: Inhibition of EZH2 in human U937 cells assessed as H3K27me3 level at 10 uM incubated for 48 hrs by Western blot analysis; conditions: U-937
[15] = biological target: T3, Histone-lysine N-methyltransferase EZH2; assay: Inhibition of EZH2 in human U937 cells assessed as H3K27me3 level at 5 uM incubated for 72 hrs by Western blot analysis; conditions: U-937
[16] = biological target: T3, Histone-lysine N-methyltransferase EZH2; assay: Inhibition of EZH2 in human U937 cells assessed as H3K27me3 level at 10 uM incubated for 72 hrs by Western blot analysis; conditions: U-937
[17] = biological target: T3, Histone-lysine N-methyltransferase EZH2; assay: Inhibition of EZH2 in human U937 cells assessed as H3K27me3 level at 5 uM incubated for 96 hrs by Western blot analysis; conditions: U-937
[18] = biological target: T3, Histone-lysine N-methyltransferase EZH2; assay: Inhibition of EZH2 in human U937 cells assessed as H3K27me3 level at 10 uM incubated for 96 hrs by Western blot analysis; conditions: U-937
[19] = biological target: T2, Protein deacetylase HDAC6 (Homo sapiens); assay: Inhibition of HDAC6 in human U937 cells assessed as acetylated alpha-tubulin level at 50 uM incubated for 72 hrs by Western blot analysis; conditions: U-937
[20] = biological target: T2, Protein deacetylase HDAC6 (Homo sapiens); assay: Inhibition of HDAC6 in human U937 cells assessed as acetylated alpha-tubulin level at 50 uM incubated for 96 hrs by Western blot analysis; conditions: U-937
[21] = biological target: T2, Protein deacetylase HDAC6 (Homo sapiens); assay: Inhibition of HDAC6 in human U937 cells assessed as acetylated alpha-tubulin level at 50 uM incubated for 120 hrs by Western blot analysis; conditions: U-937
[22] = biological target: T2, Protein deacetylase HDAC6 (Homo sapiens); assay: Inhibition of HDAC6 in human U937 cells assessed as acetylated alpha-tubulin level at 50 uM incubated for 144 hrs by Western blot analysis; conditions: U-937
[23] = biological target: T3, Histone-lysine N-methyltransferase EZH2; assay: Inhibition of EZH2 in human U937 cells assessed as H3K27me3 level at 50 uM incubated for 72 hrs by Western blot analysis; conditions: U-937
[24] = biological target: T3, Histone-lysine N-methyltransferase EZH2; assay: Inhibition of EZH2 in human U937 cells assessed as H3K27me3 level at 50 uM incubated for 144 hrs by Western blot analysis; conditions: U-937
[25] = biological target: T2, Protein deacetylase HDAC6 (Homo sapiens); assay: Inhibition of HDAC6 in human RH4 cells assessed as acetylated alpha-tubulin level at 14 uM incubated for 72 hrs by Western blot analysis
[26] = biological target: T2, Protein deacetylase HDAC6 (Homo sapiens); assay: Inhibition of HDAC6 in human RH4 cells assessed as acetylated alpha-tubulin level at 28 uM incubated for 72 hrs by Western blot analysis
[27] = biological target: T2, Protein deacetylase HDAC6 (Homo sapiens); assay: Inhibition of HDAC6 in human RH4 cells assessed as acetylated alpha-tubulin level at 14 uM incubated for 96 hrs by Western blot analysis
[28] = biological target: T2, Protein deacetylase HDAC6 (Homo sapiens); assay: Inhibition of HDAC6 in human RH4 cells assessed as acetylated alpha-tubulin level at 28 uM incubated for 96 hrs by Western blot analysis
[29] = biological target: T3, Histone-lysine N-methyltransferase EZH2; assay: Inhibition of EZH2 in human RH4 cells assessed as H3K27me3 level at 14 uM incubated for 72 hrs by Western blot analysis
[30] = biological target: T3, Histone-lysine N-methyltransferase EZH2; assay: Inhibition of EZH2 in human RH4 cells assessed as H3K27me3 level at 28 uM incubated for 72 hrs by Western blot analysis
[31] = biological target: T3, Histone-lysine N-methyltransferase EZH2; assay: Inhibition of EZH2 in human RH4 cells assessed as H3K27me3 level at 14 uM incubated for 96 hrs by Western blot analysis
[32] = biological target: T3, Histone-lysine N-methyltransferase EZH2; assay: Inhibition of EZH2 in human RH4 cells assessed as H3K27me3 level at 28 uM incubated for 96 hrs by Western blot analysis

fold change (FC) [1]: 1.4
fold change (FC) [2]: 1.4
fold change (FC) [3]: 1.1
fold change (FC) [4]: 1.2
fold change (FC) [5]: 0.9
fold change (FC) [6]: 1
fold change (FC) [7]: 2.8
fold change (FC) [8]: 3.1
fold change (FC) [9]: 4.2
fold change (FC) [10]: 4.3
fold change (FC) [11]: 4.5
fold change (FC) [12]: 4.1
fold change (FC) [13]: 1
fold change (FC) [14]: 1.1
fold change (FC) [15]: 0.9
fold change (FC) [16]: 1
fold change (FC) [17]: 0.8
fold change (FC) [18]: 0.8
fold change (FC) [19]: 127
fold change (FC) [20]: 152
fold change (FC) [21]: 61.7
fold change (FC) [22]: 9.9
fold change (FC) [23]: 1.3
fold change (FC) [24]: 0.4
fold change (FC) [25]: 11.2
fold change (FC) [26]: 15.3
fold change (FC) [27]: 4
fold change (FC) [28]: 4.3
fold change (FC) [29]: 0.6
fold change (FC) [30]: 0.6
fold change (FC) [31]: 0.9
fold change (FC) [32]: 0.7
Compound: Cc1cc(C)c(CNC(=O)c2cc(C)n(-c3cccc(NC(=O)CCCCCCC(=O)NO)c3)c2C)c(=O)[nH]1
